We go through two substances from US6495673.

Experiment [1] concerns the target biotin-labeled … peptide (SEQ ID NO: 15). Kind of experiment: competition ELISA over time with 1000-fold excess of unlabeled peptide.
Experiment [2] shares this target. Kind of experiment: biopanning, 1 round: capture through biotin-peptide on streptavidin beads, EDTA elution; against GST-fd phage (pFV7).
Experiment [3] shares this target. Kind of experiment: biopanning, 2 rounds: capture through biotin-peptide on streptavidin beads, EDTA elution; against GST-fd phage (pFV7).

Turning to “Calmodulin-tagged phage DN323 (calmodulin displayed as a gene III fusion on filamentous phage, from phagemid pDN323) (from UniProt P0DP23 2-149)”, the time for which the complex is stable in experiment [1] is greater than 2 h. “phage displaying glutathione S-transferase-calmodulin fusion (from vector pSD3) (from UniProt P0DP23 2-149)”: the Enrichment in experiment [2] is greater than 40000 fold; in experiment [3], greater than 2e+07 fold.
